According to patent US20260384404A1, “CRYSTALLINE FORMS, AND PROCESSES FOR THEIR PRODUCTION” (published 2026):
One block for each compound: values may come before it.

Tests used:
[1] = Thermogravimetric analysis (TG)
Experimental: The analyses were performed using a Mettler-Toledo TGA/DSC3+ simultaneous system with autosampler, using closed aluminium crucibles (100 μl volume) with a pinhole. The TG/DSC signals were recorded from 30 to 250 °C with linear heating rate (10 °C/min) under a 150 ml/min nitrogen flow. About 10 mg of powder was used for each measurement.

[2] = Solubility in various solvents at room temperature (European Pharmacopoeia 5.11)
Experimental: Method: According to European Pharmacopoeia (EP) paragraph 5.11, the solubility of EBC-1013 was determined in different solvents at room temperature. For methanol, acetonitrile and propylene glycol, in a proper flask, about 20 mg of EBC-1013 was accurately weighed. For all other solvents, in a proper flask, about 10 mg of EBC-1013 was accurately weighed.
The solubility of 10 mg batches of EBC-1013 crystalline form I in various solvents was analysed.

[3] = General statements on stability and glass transition of the solid forms; conditions: general statement
[4] = Dynamic Vapor Sorption (DVS) / hygroscopicity; conditions: for Change in Mass (%): 25 °C; for hygroscopicity / uptake of water: general statement
Experimental: DVS Intrinsic1 system (Surface Measurement Systems Ltd UK) with Intrinsic Control Software and software DVS Analysis Suite for elaboration.
The analysis was run at a fixed temperature of 25±0.1 °C.
The sample was dried for 6 hours under a continuous flow of dry air (Relative Humidity, RH<0.1%) to establish the dry mass (preconditioning step).
The relative humidity was then increased from 0% to 90% RH (in 10% RH steps) and then decreased to 0% RH in a similar way, until the completion of two full sorption/desorption cycles. The instrument was run in a dm/dt mode (mass variation over time variation) and a fixed dm/dt value of 0.002%/min was selected, in order to let equilibrium to be reached at each step.
A maximum dm/dt stage time of 3 hours along with minimum dm/dt stability duration of one hour were chosen. In the last step the samples were kept for 3 hours under a flow of dry air necessary for the weight equilibration.
The hygroscopicity of the sample is determined using the following equation:
Weight change=100×[(W2−W1)/W1]
Where: • W1=weight of sample at the start of the experiment (25 °C, 40% RH) • W2=weight of sample at 25 °C at 80% RH in the first absorption cycle • (see V. Murikipudi et al., Pharmaceutical Development and Technology, 2013; 18(2): 348-358)

[5] = Accelerated stability studies (storage, HPLC assay, water content, impurities, XRPD)
Experimental: Instrument: The diffraction pattern was recorded with a Bruker D8-Advance diffractometer.
• Tube anode: Cu • Generator tension (kV): 40 • Generator current (mA): 40 • Wavelengths α1 and α2 (Å): 1.54056, 1.54439 • Intensity ratio (α2/α1): 0.500 • Spinner: off • Angular range (2θ°): 3.00-50.00 • Step size (2θ°): 0.020 • Time per step (sec): 0.50
The purity of the reference material was determined by High Performance Liquid Chromatography (HPLC).
Instrument: UHPLC Agilent 1290 Infinity II (dwell volume<150 μl, max system pressure 18000 psi) equipped with G7117A DAD Detector, Thermostated Column Compartment and Cooling Sample Manager Compartment.
• Column: Halo RP-Amide (150×4.6 mm, 2.7 μm; P/N: 92814-707) • Flow: 1.0 ml/min—Injection Volume: 10.0 μl • Column Temperature: 10 °C—Detector Wavelength: 249 nm • Sample Concentration: 1 mg/ml in Acetonitrile • Solvent A: Water+0.1% formic acid/THF 95/5 (V/V) • Solvent B: Acetonitrile+0.1% formic acid/THF 95/5 (V/V)
EBC-1013 crystalline form I and amorphous EBC-1013 were subjected to accelerated stability studies, being assayed after storage for 1 month at 2-8 °C, 25 °C at 60% relative humidity, and at 40 °C at 75% relative humidity. Data for EBC-1013 crystalline form I was also collected at 3 months.

TG loss of weight ([1]; 10 °C/min, typical batch): less than 0.01%
TG loss of mass ([1]; during heating to 100 °C): low loss of mass
Approximate volume of solvent in ml per g of solute ([2]; Acetone): From 1 to 10: 10 ml per g of solute
Solubility ([2]; Acetone): Freely soluble (From 1 to 10)
Volume ([2]; Acetone): 0.1 mL
Approximate volume of solvent in ml per g of solute ([2]; Acetonitrile): From 30 to 100: 99 ml per g of solute
Solubility ([2]; Acetonitrile): Sparingly soluble (From 30 to 100)
Volume ([2]; Acetonitrile): 2 mL
Approximate volume of solvent in ml per g of solute ([2]; Ethanol): From 1 to 10: 10 ml per g of solute
Solubility ([2]; Ethanol): Freely soluble (From 1 to 10)
Volume ([2]; Ethanol): 0.1 mL
Approximate volume of solvent in ml per g of solute ([2]; Ethyl Acetate): From 1 to 10: 9 ml per g of solute
Solubility ([2]; Ethyl Acetate): Freely soluble (From 1 to 10)
Volume ([2]; Ethyl Acetate): 0.1 mL
Approximate volume of solvent in ml per g of solute ([2]; Methanol): From 100 to 1000: 938 ml per g of solute
Solubility ([2]; Methanol): Slightly soluble (From 100 to 1000)
Volume ([2]; Methanol): 20 mL
Approximate volume of solvent in ml per g of solute ([2]; Propylene glycol): From 10 to 30: 14 ml per g of solute
Solubility ([2]; Propylene glycol): Soluble (From 10 to 30)
Volume ([2]; Propylene glycol): 0.3 mL
Solubility ([2]; Water): Practically
Volume ([2]; Water): 110 mL
Solubility ([2]; n-Heptane): Practically
Volume ([2]; n-Heptane): 110 mL
stability ([3]; listed as Crystalline form I): good stability
hygroscopicity classification [4]: not hygroscopic
Change in Mass (%) ([4]; 30% relative humidity): 0.0%
Change in Mass (%) ([4]; 60% relative humidity): 0.02%
Change in Mass (%) ([4]; 90% relative humidity): 0.08%
hygroscopicity / uptake of water ([4]; listed as Crystalline form I): low hygroscopicity
hygroscopicity / uptake of water ([4]; listed as form I crystalline form): relatively low uptake of water
Appearance ([5]; 1 month 2-8 °C): Off-white
HPLC Assay ([5]; 1 month 2-8 °C): 99.0
HPLC Assay a.s.f. ([5]; 1 month 2-8 °C): 99.1
Total impurities ([5]; 1 month 2-8 °C): 0.05
Water content (KF Coulometric) ([5]; 1 month 2-8 °C): 0.03
XRPD (solid form on storage) ([5]; 1 month 2-8 °C): Form I
Appearance ([5]; 1 month 25 °C 60% RH): Off-white
HPLC Assay ([5]; 1 month 25 °C 60% RH): 99.7
HPLC Assay a.s.f. ([5]; 1 month 25 °C 60% RH): 99.8
Total impurities ([5]; 1 month 25 °C 60% RH): <0.05
Water content (KF Coulometric) ([5]; 1 month 25 °C 60% RH): 0.03
XRPD (solid form on storage) ([5]; 1 month 25 °C 60% RH): Form I
Appearance ([5]; 1 month 40 °C 75% RH): Off-white
HPLC Assay ([5]; 1 month 40 °C 75% RH): 99.5
HPLC Assay a.s.f. ([5]; 1 month 40 °C 75% RH): 99.5
Total impurities ([5]; 1 month 40 °C 75% RH): <0.05
Water content (KF Coulometric) ([5]; 1 month 40 °C 75% RH): 0.04
XRPD (solid form on storage) ([5]; 1 month 40 °C 75% RH): Form I
Appearance ([5]; 3 months 2-8 °C): Off-white
HPLC Assay ([5]; 3 months 2-8 °C): 101.1
HPLC Assay a.s.f. ([5]; 3 months 2-8 °C): 101.2
Total impurities ([5]; 3 months 2-8 °C): <0.05
Water content (KF Coulometric) ([5]; 3 months 2-8 °C): 0.08
XRPD (solid form on storage) ([5]; 3 months 2-8 °C): Form I
Appearance ([5]; 3 months 25 °C 60% RH): Off-white
HPLC Assay ([5]; 3 months 25 °C 60% RH): 98.8
HPLC Assay a.s.f. ([5]; 3 months 25 °C 60% RH): 98.9
Total impurities ([5]; 3 months 25 °C 60% RH): 0.11
Water content (KF Coulometric) ([5]; 3 months 25 °C 60% RH): 0.11
XRPD (solid form on storage) ([5]; 3 months 25 °C 60% RH): Form I
Appearance ([5]; 3 months 40 °C 75% RH): Off-white
HPLC Assay ([5]; 3 months 40 °C 75% RH): 98.3
HPLC Assay a.s.f. ([5]; 3 months 40 °C 75% RH): 98.4
Total impurities ([5]; 3 months 40 °C 75% RH): 0.06
Water content (KF Coulometric) ([5]; 3 months 40 °C 75% RH): 0.13
XRPD (solid form on storage) ([5]; 3 months 40 °C 75% RH): Form I
Appearance ([5]; T0): Off-white
HPLC Assay ([5]; T0): 99.7
HPLC Assay a.s.f. ([5]; T0): 99.8
Total impurities ([5]; T0): 0.14
Water content (KF Coulometric) ([5]; T0): 0.04
XRPD (solid form on storage) ([5]; T0): Form I
stability on storage ([5]; up to 3 months, including higher temperatures and higher relative humidity): stable
SMILES: CCCCCC(=O)O[C@@H]1[C@@H](C)[C@@]2(O)[C@H]([C@@H]3C(C)(C)[C@]13OC(=O)CCCCC)[C@@H]1O[C@]1(CO)[C@@H](O)[C@]1(O)C(=O)C(C)=C[C@H]12 [Form I]
Approximate volume of solvent in ml per g of solute ([2]; Water): More than 10000: 11100 ml per g of solute
Approximate volume of solvent in ml per g of solute ([2]; n-Heptane): More than 10000: 10967 ml per g of solute

Degradation temperature ([1]; TG, 10K/min): above 260 °C
TG weight loss ([1]; range 25-80 °C, 10K/min): 0.39%
glass-transition temperature [3]: low
stability ([3]; listed as amorphous material): limited chemical and physical stability
hygroscopicity / uptake of water ([4]; listed as amorphous material): hygroscopicity
Appearance ([5]; 1 month 2-8 °C): Pale yellow
HPLC Assay ([5]; 1 month 2-8 °C): 95.2
HPLC Assay a.s.f. ([5]; 1 month 2-8 °C): 95.5
Total impurities ([5]; 1 month 2-8 °C): 0.73
Water content (KF Coulometric) ([5]; 1 month 2-8 °C): 0.29
XRPD (solid form on storage) ([5]; 1 month 2-8 °C): Amorphous
Appearance ([5]; 1 month 25 °C 60% RH): Orange
HPLC Assay ([5]; 1 month 25 °C 60% RH): 96.1
HPLC Assay a.s.f. ([5]; 1 month 25 °C 60% RH): 96.2
Total impurities ([5]; 1 month 25 °C 60% RH): 0.68
Water content (KF Coulometric) ([5]; 1 month 25 °C 60% RH): 0.13
XRPD (solid form on storage) ([5]; 1 month 25 °C 60% RH): Amorphous
Appearance ([5]; 1 month 40 °C 75% RH): Pale yellow
HPLC Assay ([5]; 1 month 40 °C 75% RH): 95.9
HPLC Assay a.s.f. ([5]; 1 month 40 °C 75% RH): 96.2
Total impurities ([5]; 1 month 40 °C 75% RH): 0.60
Water content (KF Coulometric) ([5]; 1 month 40 °C 75% RH): 0.21
XRPD (solid form on storage) ([5]; 1 month 40 °C 75% RH): Amorphous
Appearance ([5]; T0): Pale yellow
HPLC Assay ([5]; T0): 96.2
HPLC Assay a.s.f. ([5]; T0): 96.4
Total impurities ([5]; T0): 0.68
Water content (KF Coulometric) ([5]; T0): 0.17
XRPD (solid form on storage) ([5]; T0): Amorphous
SMILES: CCCCCC(=O)O[C@@H]1[C@@H](C)[C@@]2(O)[C@H]([C@@H]3C(C)(C)[C@]13OC(=O)CCCCC)[C@@H]1O[C@]1(CO)[C@@H](O)[C@]1(O)C(=O)C(C)=C[C@H]12 [Amorphous]

TG loss of weight ([1]; associated with the transition at about 80 °C): 2.22%
TG loss of weight ([1]; associated with the transition, listed as crystalline form IIA of EBC-1013): 1.64%
TG loss of weight ([1]; associated with the transition, listed as crystalline form IIC): 1.40%
TG loss of weight ([1]; during heating to 100 °C): 2.22%
Change in Mass (%) ([4]; 30% relative humidity): 0.59%
Change in Mass (%) ([4]; 60% relative humidity): 1.35%
Change in Mass (%) ([4]; 90% relative humidity): 2.03%
SMILES: CCCCCC(=O)C[C@]12C(C3[C@@H]4O[C@]4(CO)[C@@H](O)[C@]4(O)C(=O)C(C)=CC4[C@@]3(O)[C@H](C)[C@H]1OC(=O)CCCCC)C2(C)C (stereo partly shown)
